These results are taken from patent US20260000728A1, “PEPTIDE HAVING ACE INHIBITORY ACTIVITY AND COMPOSITION CONTAINING THE SAME” (Vedan International (Holdings) Limited, priority 2024, published 2026).

Protein sequences, listed by entry. Tags and fused reporters are not part of them. Residues count along the entry.
UniProt P12821, 30-1306, species assumed: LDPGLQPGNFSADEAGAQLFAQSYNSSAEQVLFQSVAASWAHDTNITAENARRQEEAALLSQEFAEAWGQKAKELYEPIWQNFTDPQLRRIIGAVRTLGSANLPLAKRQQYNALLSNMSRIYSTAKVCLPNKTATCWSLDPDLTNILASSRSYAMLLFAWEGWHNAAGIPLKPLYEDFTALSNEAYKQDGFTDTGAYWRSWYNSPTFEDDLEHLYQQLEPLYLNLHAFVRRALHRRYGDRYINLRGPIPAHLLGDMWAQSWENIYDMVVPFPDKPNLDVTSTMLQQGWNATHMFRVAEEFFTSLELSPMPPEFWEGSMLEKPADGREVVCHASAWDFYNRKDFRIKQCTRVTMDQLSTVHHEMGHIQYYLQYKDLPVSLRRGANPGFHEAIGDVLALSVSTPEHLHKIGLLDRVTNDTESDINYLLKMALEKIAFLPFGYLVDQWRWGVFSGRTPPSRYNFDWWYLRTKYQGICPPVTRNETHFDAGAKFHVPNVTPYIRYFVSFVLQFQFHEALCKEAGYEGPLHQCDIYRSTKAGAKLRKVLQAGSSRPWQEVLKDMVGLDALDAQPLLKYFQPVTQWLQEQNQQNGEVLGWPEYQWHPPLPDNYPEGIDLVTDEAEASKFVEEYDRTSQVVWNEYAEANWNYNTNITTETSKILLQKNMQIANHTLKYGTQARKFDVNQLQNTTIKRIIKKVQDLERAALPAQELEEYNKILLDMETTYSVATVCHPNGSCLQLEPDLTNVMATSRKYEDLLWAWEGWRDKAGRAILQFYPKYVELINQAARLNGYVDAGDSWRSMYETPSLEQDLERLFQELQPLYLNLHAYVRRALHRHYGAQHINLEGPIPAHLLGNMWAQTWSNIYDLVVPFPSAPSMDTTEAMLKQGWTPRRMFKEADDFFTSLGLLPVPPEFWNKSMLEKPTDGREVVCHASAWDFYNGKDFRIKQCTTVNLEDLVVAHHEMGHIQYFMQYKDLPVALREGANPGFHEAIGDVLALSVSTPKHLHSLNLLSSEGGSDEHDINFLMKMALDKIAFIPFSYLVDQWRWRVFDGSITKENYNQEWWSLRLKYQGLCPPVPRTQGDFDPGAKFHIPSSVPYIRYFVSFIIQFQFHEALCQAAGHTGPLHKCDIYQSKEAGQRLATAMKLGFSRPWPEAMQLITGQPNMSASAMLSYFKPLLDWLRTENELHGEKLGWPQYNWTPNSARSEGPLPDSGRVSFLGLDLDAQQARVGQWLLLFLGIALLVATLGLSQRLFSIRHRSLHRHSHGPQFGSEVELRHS

Several values for one entry are separate records, joined by “and”; a condition that tells them apart may be missing. Identical values can stand only once. Like-named read-outs stand apart in the source and are kept apart here.

For this test, the target named is ACE (Homo sapiens, UniProt P12821). The test can be described thus: IC50 of each tripeptide in inhibiting ACE activity. In kind it is biochemical.
[1] abbreviates: read-out: IC50 in inhibiting ACE activity (converted).

As for `CC(C)C[C@H](N)C(=O)N[C@H](C(=O)N[C@@H](Cc1ccccc1)C(=O)O)[C@@H](C)O` [LTF, Leu-Thr-Phe], the IC50 under setting [1] was 791 µM and 783 µM.
Compound `CC(C)[C@H](NC(=O)[C@@H](N)Cc1ccc(O)cc1)C(=O)N[C@@H](Cc1ccccc1)C(=O)O` [YVF, Tyr-Val-Phe] gave an IC50 (IC50 in inhibiting ACE activity) of 1920 µM.
Turning to `CC(C)C[C@H](N)C(=O)N[C@@H](CO)C(=O)N[C@@H](Cc1ccccc1)C(=O)O` [LSF, Leu-Ser-Phe], the IC50 under setting [1] was 1200 µM.
On the same count and under the same terms, under `CC(C)[C@H](N)C(=O)N[C@H](C(=O)N[C@@H](Cc1ccccc1)C(=O)O)[C@@H](C)O` [VTF, Val-Thr-Phe] stands 1560 µM and 1550 µM.
